Data taken from US9636336B2, “Aminoester derivatives” (CHIESI FARMACEUTICI S.p.A., priority 2015, dated 2017).

Amino acid sequences for entries named in this document (tags omitted). Chains listed by the source or under a name are the forms on record and can include a tag or linker.
UniProt P20309, whole entry: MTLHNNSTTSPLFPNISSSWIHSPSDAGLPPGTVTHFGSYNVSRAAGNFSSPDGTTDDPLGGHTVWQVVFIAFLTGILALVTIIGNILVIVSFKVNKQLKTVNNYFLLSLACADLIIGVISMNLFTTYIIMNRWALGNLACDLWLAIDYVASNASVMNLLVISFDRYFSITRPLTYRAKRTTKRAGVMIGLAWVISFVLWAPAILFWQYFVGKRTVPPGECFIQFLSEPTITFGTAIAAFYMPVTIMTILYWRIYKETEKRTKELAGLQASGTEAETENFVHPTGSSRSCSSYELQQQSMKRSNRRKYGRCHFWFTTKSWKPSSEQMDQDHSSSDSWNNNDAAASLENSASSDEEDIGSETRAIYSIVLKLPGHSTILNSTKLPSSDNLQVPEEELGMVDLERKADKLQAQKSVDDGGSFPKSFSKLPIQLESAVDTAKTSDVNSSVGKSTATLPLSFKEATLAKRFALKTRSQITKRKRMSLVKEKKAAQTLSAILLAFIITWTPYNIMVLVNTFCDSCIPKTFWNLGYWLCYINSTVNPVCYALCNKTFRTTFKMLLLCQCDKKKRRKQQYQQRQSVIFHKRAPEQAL
UniProt Q07343, other isoform, or with tags, fused parts or gaps: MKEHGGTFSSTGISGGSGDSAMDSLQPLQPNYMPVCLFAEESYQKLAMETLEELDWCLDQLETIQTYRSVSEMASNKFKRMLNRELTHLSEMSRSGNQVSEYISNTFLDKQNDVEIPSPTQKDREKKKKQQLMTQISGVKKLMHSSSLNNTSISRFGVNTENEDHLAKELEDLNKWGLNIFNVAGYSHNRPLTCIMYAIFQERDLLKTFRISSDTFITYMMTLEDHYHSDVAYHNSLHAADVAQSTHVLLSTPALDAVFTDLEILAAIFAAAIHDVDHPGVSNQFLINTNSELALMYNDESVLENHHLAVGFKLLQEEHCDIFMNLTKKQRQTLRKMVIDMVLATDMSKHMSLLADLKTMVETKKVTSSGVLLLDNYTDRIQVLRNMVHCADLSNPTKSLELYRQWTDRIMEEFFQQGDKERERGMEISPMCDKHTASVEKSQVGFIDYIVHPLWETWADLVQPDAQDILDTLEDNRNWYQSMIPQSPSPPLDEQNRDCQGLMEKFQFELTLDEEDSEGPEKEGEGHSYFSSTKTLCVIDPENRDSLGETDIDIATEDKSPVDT

Assays:
[1] = target: Human M3 receptor membranes (Homo sapiens (Human), UniProt P20309); assay: M3 Receptor radioligand binding assay
Description: M3 Receptor Radioligand Binding Assay:
The assay is carried out in 96-well polypropylene plates in a volume of 250 μl. […] The final assay concentration of DMSO is 0.5% (v/v). The plates are sealed and incubated for 2 h at room temperature on an orbital shaker (slow speed). Membranes are harvested onto 96-well unifilter GF/C filter plates pre-treated with 0.5% polyethyleneimine (v/v), using a filter manifold, washed four times with 200 μl of assay buffer. The plates are dried before addition of 50 μl of microscint-0, sealed then read in a Trilux Microbeta scintillation counter. IC50 values are determined from competition curves using a non-linear curve fitting program. Ki values are calculated from IC50 values by the Cheng and Prusoff equation.

[2] = target: Human recombinant PDE4B2 (Homo sapiens (Human), UniProt Q07343); assay: PDE4B2 HTRF assay; type: biochemical
Description: PDE4B2 activity is detected using the LANCE Ultra cAMP homogeneous time resolved fluorescence resonance energy transfer (TR-FRET) assay from Perkin Elmer. The assay is based on the competition between the europium (Eu) chelate-labeled cAMP tracer and sample cAMP for binding sites on cAMP-specific monoclonal antibodies (mAb) labelled with the ULight™ dye. The assay is carried out in 384-well low volume plates in a volume of 10 μl. Human recombinant PDE4B2 (80 pM) is incubated for 2 h with 3 nM cAMP in buffer containing 1×HBSS, 5 mM HEPES, 3 mM MgCl2, 0.1% BSA, pH 7.4 with or without test compounds. The enzymatic reactions are efficiently stopped by the addition of 500 μM IBMX present in the combined Stop/Detection buffer containing europium (Eu) chelate-labeled cAMP tracer and cAMP-specific monoclonal antibodies (mAb) labelled with the ULight™ dye. […] IC50 values are determined from competition curves using a non-linear curve fitting program.

`COc1ccc([C@H](Cc2c(Cl)c[n+]([O-])cc2Cl)OC(=O)c2ccc(CNC(C(=O)OCC3CCN(C)CC3)c3ccccc3)s2)cc1OC` (stereo partly drawn) [Example 23, [(1S)-2-(3,5-dichloro-1-oxido-pyridin-1-ium-4-yl)-1-(3,4-dimethoxyphenyl)ethyl] 5-[[[2-[(1-methyl-4-piperidyl)methoxy]-2-oxo-1-phenyl-ethyl]amino]methyl]thiophene-2-carboxylate] showed an IC50 [1] of 1 to 10 nM.
With `COc1ccc([C@H](Cc2c(Cl)c[n+]([O-])cc2Cl)OC(=O)c2ccc(CNC3(C(=O)OCC4CCN(C)CC4)CCc4ccccc43)s2)cc1OC` (stereo partly drawn) [Example 38, [(1S)-2-(3,5-dichloro-1-oxido-pyridin-1-ium-4-yl)-1-(3,4-dimethoxyphenyl)ethyl]5-[[[1-[(1-methyl-4-piperidyl)methoxycarbonyl]indan-1-yl]amino]methyl]thiophene-2-carboxylate] the IC50 [1] was 1 to 10 nM.
With `COc1ccc([C@H](Cc2c(Cl)c[n+]([O-])cc2Cl)OC(=O)c2ccc(CNC(C(=O)OC[C@@H]3CCCN3C)c3ccccc3)s2)cc1OC` (stereo partly drawn) [Example 16, [(1S)-2-(3,5-dichloro-1-oxido-pyridin-1-ium-4-yl)-1-(3,4-dimethoxyphenyl)ethyl] 5-[[[2-[[(2S)-1-methylpyrrolidin-2-yl]methoxy]-2-oxo-1-phenyl-ethyl]amino]methyl]thiophene-2-carboxylate] the IC50 [2] was 1 to 10 nM.
Compound `COc1ccc([C@H](Cc2c(Cl)c[n+]([O-])cc2Cl)OC(=O)c2ccc(CNC(CO)(C(=O)OCC3CCN(C)CC3)c3ccccc3)s2)cc1OC` (stereo partly drawn) [Example 35, [(1S)-2-(3,5-dichloro-1-oxido-pyridin-1-ium-4-yl)-1-(3,4-dimethoxyphenyl)ethyl] 5-[[[1-(hydroxymethyl)-2-[(1-methyl-4-piperidyl)methoxy]-2-oxo-1-phenyl-ethyl]amino]methyl]thiophene-2-carboxylate] has an IC50 [1] of 1 to 10 nM.
With `COc1ccc([C@H](Cc2c(Cl)c[n+]([O-])cc2Cl)OC(=O)c2ccc(CNC(CO)(C(=O)OCC3CCN(C)CC3)c3ccccc3)s2)cc1OC` (stereo partly drawn) [Example 105, [(1S)-2-(3,5-dichloro-1-oxido-pyridin-1-ium-4-yl)-1-(3,4-dimethoxyphenyl)ethyl] 5-[[[1-(hydroxymethyl)-2-[(1-methyl-4-piperidyl)methoxy]-2-oxo-1-phenyl-ethyl]amino]methyl]thiophene-2-carboxylate] the IC50 [1] was 1 to 10 nM.
`COc1ccc([C@H](Cc2c(Cl)c[n+]([O-])cc2Cl)OC(=O)c2ccc(CNC(C(=O)OCC3CCN(C)CC3)c3ccccc3F)s2)cc1OC` (stereo partly drawn) [Example 24, [(1S)-2-(3,5-dichloro-1-oxido-pyridin-1-ium-4-yl)-1-(3,4-dimethoxyphenyl)ethyl] 5-[[[1-(2-fluorophenyl)-2-[(1-methyl-4-piperidyl)methoxy]-2-oxo-ethyl]amino]methyl]thiophene-2-carboxylate] gave an IC50 [1] of 1 to 10 nM.
For `COc1ccc([C@H](Cc2c(Cl)c[n+]([O-])cc2Cl)OC(=O)c2ccc(CNC(C(=O)OCC3CCN(C)CC3)c3ccccc3)s2)cc1OC` (stereo partly drawn) [Example 87, [(1S)-2-(3,5-dichloro-1-oxido-pyridin-1-ium-4-yl)-1-(3,4-dimethoxyphenyl)ethyl] 5-[[[2-[(1-methyl-4-piperidyl)methoxy]-2-oxo-1-phenyl-ethyl]amino]methyl]thiophene-2-carboxylate], the IC50 [1] was 1 to 10 nM.
Work on `CN1CCC(COC(=O)C(NCc2ccc(C(=O)O[C@@H](Cc3c(Cl)c[n+]([O-])cc3Cl)c3ccc(OC(F)F)c(OCC4CC4)c3)s2)c2ccccc2)CC1` (stereo partly drawn) [Example 13, [(1S)-1-[3-(cyclopropylmethoxy)-4-(difluoromethoxy)phenyl]-2-(3,5-dichloro-1-oxido-pyridin-1-ium-4-yl)ethyl] 5-[[[2-[(1-methyl-4-piperidyl)methoxy]-2-oxo-1-phenyl-ethyl]amino]methyl]thiophene-2-carboxylate] yielded an IC50 [1] of 1 to 10 nM.
Work on `COc1ccc([C@H](Cc2c(Cl)c[n+]([O-])cc2Cl)OC(=O)c2ccc(CNC(C(=O)OCCN3CCCC3)c3ccccc3)s2)cc1OC` (stereo partly drawn) [Example 21, [(1S)-2-(3,5-dichloro-1-oxido-pyridin-1-ium-4-yl)-1-(3,4-dimethoxyphenyl)ethyl] 5-[[[2-oxo-1-phenyl-2-(2-pyrrolidin-1-ylethoxy)ethyl]amino]methyl]thiophene-2-carboxylate] yielded an IC50 [1] of 10 to 100 nM.
